Compound activity (PubChem BioAssay)
In the library only some 0.43% were active in any assay of this set; here they are far more common.
GIV Gai3 FP: blocks GIV peptide binding to rat Galpha-i3; Galpha-i3/FITC-GIV peptide fluorescence polarization, 90 min; stronger effect = lower value; scaled: aluminum fluoride 0%, vehicle 100%; P08753; hit rate 0.42% among 210,000; AID 1224905; percent of control (FP), % (test concentration not listed);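 active = replicate mean at 85% of control or lower, very high polarization wells dropped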;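 also: wells of about 15 µL received 100 nL stock; the first replicate is given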
HCMV NEC inh: cytomegalovirus nuclear egress complex inhibition; HTRF UL50-UL53 interaction, normalized percent inhibition; inhibition, % (concentration not given with the values); 0.15% of 190,000 active; in the data active = inhibition above about 27%, passing the limit was not always enough
GIV-Gai FP conf: GIV-Galpha-i3 inhibition, FP confirmation; FITC-GIV peptide binding to Galphai3, fluorescence polarization; hits give low values; fluorescence polarization, mP at 100 µM; 38% of 580 active; shares compounds with GIV Gai3 FP;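 active = inhibition score of 15 or more, meaning 100 minus mean polarization as percent of control over three replicates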;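 also: lower mP means peptide displaced from Galphai3 so more inhibition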
GIV-Gai AS conf: confirmation of inhibitors of GIV binding to human Galpha-i3 | shares compounds with GIV Gai3 FP | AlphaScreen Galphai3-GIV binding, purified proteins, 90 min; hits give low values | AlphaScreen counts at 100 µM | 39% of 580 active | AID 1259351;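 active = inhibition score at or above a set limit, where the score is 100 minus the three-replicate mean percent of control signal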
* hit, by the source's call; · = no result.

1) Cc1c(C)[n+]([O-])c2ccc3c(non3O)c12
2) COn1c(C)c(C)c2c3no[n+]([O-])c3ccc21
3) CCCCNC(=O)CN1C(=O)C2CCCC2=Nc2ccccc21 (configuration not stated)
4) CCc1ccc(CN(Cc2cn[nH]c2-c2ccc(OC)cc2)C(=O)Nc2ccc(C)cc2C)cc1
5) O=C(c1ccc2c(c1)OCO2)N1CCc2c([nH]c3ccccc23)C1c1ccc(Cl)cc1 (configuration not stated)
6) CN(Cc1ccccc1)C(=O)c1cc2c(=O)n3ccccc3nc2n1C
7) CCN(Cc1ccccc1)C(=O)c1cc2c(=O)n3ccccc3nc2n1C
8) CS(=O)(=O)NCC1CCCO1 (configuration not stated)
Compound | 1 | 2 | 3 | 4 | 5 | 6 | 7 | 8
GIV Gai3 FP | 94 | 72* | 105 | 102 | 98 | 68* | 102 | ·
HCMV NEC inh | -98 | -8 | -10 | · | · | -30 | -50 | 9
GIV-Gai FP conf | · | 60 | · | · | · | 70 | · | ·
GIV-Gai AS conf | · | 22452* | · | · | · | 35770 | · | ·

9) CC(=O)OC1CCCC2=CCC3C(CCC4(C)C3C[C@@H](C)[C@]4(C)C(C)=O)C21C (some centres not stated)
10) CC(NC(=O)c1ccccc1C(=O)NC(C)c1ccc2c(c1)OCCO2)c1ccc2c(c1)OCCO2 (configuration not stated)
11) CC(NCCO)c1ccc2c(c1)OCCO2 (configuration not stated)
12) CCc1ccc(OCC(=O)Nc2ccc3c(c2)N(C(C)=O)c2ccccc2CC3)cc1
13) CC(C)NC(=O)CCn1cnc2onc(-c3cccc(F)c3)c2c1=O
14) COC(=O)CCn1cnc2onc(-c3cc(F)cc(F)c3)c2c1=O
15) COc1cccc(C2C(C(=O)O)c3ccccc3C(=O)N2C)c1 (configuration not stated)
16) COc1cc(OC)cc(N(C)S(=O)(=O)c2ccsc2-c2nc(-c3ccncc3)no2)c1
Compound | 9 | 10 | 11 | 12 | 13 | 14 | 15 | 16
GIV Gai3 FP | 116 | 105 | 78* | 110 | 101 | 71* | 111 | 112
HCMV NEC inh | · | -25 | -2 | · | 1 | -37 | · | -15
GIV-Gai FP conf | · | · | 75 | · | · | 80 | · | ·
GIV-Gai AS conf | · | · | 36499 | · | · | 36007 | · | ·

17) CCN1C(C(=O)c2ccccc2)=C(NC(=O)c2ccccc2)c2ccccc2S1(=O)=O
18) CCCCCN1C(C(=O)c2ccccc2)=C(NC(=O)c2ccc(C)cc2)c2ccccc2S1(=O)=O
19) Cc1cc(C(F)(F)F)n2nc(-c3ccccc3)cc2n1
20) Cc1cc(-c2ccccc2)n2nc(-c3ccc(Cl)cc3)cc2n1
21) Cc1nc(C)c(-c2csc(Nc3ccccc3)n2)s1
22) N#CC(C#N)=C(N)/C(C#N)=C/c1ccco1
23) N#C/C(=C\C=C\c1ccco1)C(N)=S
24) CCCCc1ccc(C2C3=C(CC(C)(C)CC3=O)N=C3c4ccccc4C(=O)C32)cc1 (configuration not stated)
Compound | 17 | 18 | 19 | 20 | 21 | 22 | 23 | 24
GIV Gai3 FP | 55* | 106 | 115 | 51* | · | 112 | 78* | 108
HCMV NEC inh | -4 | -7 | -23 | · | -49 | -69 | 51 | ·
GIV-Gai FP conf | 20* | · | · | 85 | · | · | 50* | ·
GIV-Gai AS conf | 46797 | · | · | 33087 | · | · | 2145* | ·

Entries by screen from the list:
Compounds 4–11 in GIV Gai3 FP read 102, 98, 68*, 102, ·, 116, 105, 78*

Next section
25) CC1(C)N2CC3([N+](=O)[O-])CN1CC([N+](=O)[O-])(C2)C3(C)C
26) CC1(C)C2([N+](=O)[O-])CN3CC1([N+](=O)[O-])CN(C2)C3c1ccc(O)cc1 (configuration not stated)
27) COc1ccc(C(=O)CSc2nnc(-c3ccco3)c(-c3ccco3)n2)cc1
28) O=C(CSc1nnc(-c2ccco2)c(-c2ccco2)n1)Nc1ccc(C(=O)O)cc1
29) O=C(CCN1C(=O)/C(=C/c2ccc3c(c2)OCO3)SC1=S)NC1=NCCS1
30) O=C(CCN1C(=O)/C(=C/c2ccc3c(c2)OCO3)SC1=S)Nc1ccccc1
31) COc1ccc(OC)c(NC(=O)CCc2c(C)nc3c(-c4ccccc4)c(C)nn3c2C)c1
32) COc1ccc(NC(=O)CCc2c(C)nc3c(-c4ccc(F)cc4)c(C)nn3c2C)c(OC)c1
Compound | 25 | 26 | 27 | 28 | 29 | 30 | 31 | 32
GIV Gai3 FP | 92 | 128 | 111 | 77* | 84* | · | 101 | 92
HCMV NEC inh | · | · | · | -64 | -51 | -8 | -5 | -7
GIV-Gai FP conf | 64 | · | · | 60* | 60 | · | · | 80
GIV-Gai AS conf | 45009 | · | · | 2995* | 47879 | · | · | 32949

33) CCOc1cc(/C=C/c2ccccc2OC)cc(=O)c2c(C)oc(C)c12
34) COc1cccc(=O)c2c(C)oc(C)c12
35) Cn1nc(OCC(=O)N2CCOCC2)cc1C(F)(F)F
36) Cc1ccc(C)n1-c1cc(Cl)ccc1C(=O)O
37) Cc1ccc(C)n1-c1ccccc1C(=O)O
38) CC(=O)Nc1ccc(-n2c(C)ccc2C)c(C(=O)O)c1
39) CCCOc1ccc(Cl)cc1C(=O)O
40) O=C(CSc1nc2ccccc2[nH]1)N1CCc2ccccc2C1
41) CCOc1cccc(CNC(=O)c2sccc2N(C)S(=O)(=O)c2ccccc2)c1
Compound | 33 | 34 | 35 | 36 | 37 | 38 | 39 | 40 | 41
GIV Gai3 FP | 95 | 25* | 99 | 60* | 5.7* | · | 100 | · | 97
HCMV NEC inh | · | -73 | -16 | 80* | 30 | 5 | 3 | 4 | ·
GIV-Gai FP conf | · | 37* | · | 59* | 11* | · | · | · | ·
GIV-Gai AS conf | · | 7201* | · | 2339* | 1962* | · | · | · | ·

Profiles as entered above:
Entry for Cc1ccc(C)n1-c1cc(Cl)ccc1C(=O)O : GIV Gai3 FP: 60*; HCMV NEC inh: 80*; GIV-Gai FP conf: 59*; GIV-Gai AS conf: 2339*
Entry for COc1cccc(=O)c2c(C)oc(C)c12 : GIV Gai3 FP: 25*; HCMV NEC inh: -73; GIV-Gai FP conf: 37*; GIV-Gai AS conf: 7201*
